{"source": "ChEMBL document CHEMBL1143747", "about": "“Synthesis and pharmacochemical evaluation of novel aryl-acetic acid inhibitors of lipoxygenase, antioxidants, and anti-inflammatory agents” (Bioorg Med Chem, 2007)", "test": "Reduction of DPPH radical activity at 0.1 mM after 20 mins", "format": "functional", "set-up": "scale not given: the % may be the effect or the level left"}
{"smiles": "CC(Cc1ccc(O)c(O)c1)C(C)Cc1ccc(O)c(O)c1", "note": "(stereo unspecified)", "values": [{"measurement": "Activity", "value": 81, "unit": "%"}]}
